We go through 1 compound from ChEMBL document CHEMBL1143102, “Synthesis, radiofluorination, and in vitro evaluation of pyrazolo[1,5-a]pyridine-based dopamine D4 receptor ligands: discovery of an inverse agonist radioligand for PET” (J Med Chem, 2008).

The species named for assay [1] is Homo sapiens. Nature of the assay: Selectivity for human dopamine D4.4 receptor over human dopamine D2L receptor.
For assay [2], the species on record is Homo sapiens. Nature of the assay: Selectivity for human dopamine D4.4 receptor over human dopamine D2S receptor.
For assay [3], the species on record is Homo sapiens. As to the kind of experiment: Selectivity for human dopamine D4.4 receptor over human dopamine D3 receptor.

Regarding `FCCOc1ccccc1N1CCN(Cc2cnn3ccccc23)CC1`, the Ratio Ki in the assay filed under Homo sapiens [1] came out at 94; in the assay filed under Homo sapiens [2], 112; in the assay filed under Homo sapiens [3], 200.
